# Experimental data: patent US4898975A, “Water soluble organic ammonium per halides” (Great Lakes Chemical Corporation, priority 1989, dated 1990)
# Read-outs that look alike come from different tables or passages of the source.
# Tests used:
# [1] = format: physicochemical; conditions: closed bottle, 29200 h
# [2] = format: physicochemical; conditions: closed bottle, ambient, 16060 h
substance,measurement,setting,value
Diethanolammonium Perbromide [Compound 23],Relative Change in % Br2,[1],26.2%
same,Relative Change in % Br2,[2],10.9%
